The values below are quoted from earlier work in US7135488B2, “Pyrrolyl-thiazole derivatives” (Hoffmann-La Roche Inc., priority 2003, dated 2006).

Amino acid sequences for entries named in this document (tags omitted).
UniProt P47746, whole entry: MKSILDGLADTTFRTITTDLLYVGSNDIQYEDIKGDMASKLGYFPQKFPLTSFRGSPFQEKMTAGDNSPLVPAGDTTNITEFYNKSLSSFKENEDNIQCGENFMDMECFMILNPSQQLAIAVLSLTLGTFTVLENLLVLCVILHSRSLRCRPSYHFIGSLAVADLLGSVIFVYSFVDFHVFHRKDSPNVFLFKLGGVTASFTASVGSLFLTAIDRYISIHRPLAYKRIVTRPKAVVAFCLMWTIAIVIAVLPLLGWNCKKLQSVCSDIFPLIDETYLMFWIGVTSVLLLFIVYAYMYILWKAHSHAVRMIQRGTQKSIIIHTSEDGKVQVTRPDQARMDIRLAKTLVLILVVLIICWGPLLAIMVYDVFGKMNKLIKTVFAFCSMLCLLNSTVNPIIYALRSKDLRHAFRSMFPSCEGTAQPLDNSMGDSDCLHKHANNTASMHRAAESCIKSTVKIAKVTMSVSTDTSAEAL

The target of the data set is CB1 receptor (Mus musculus, UniProt P47746). Conditions: wild-type versus CB1 receptor knockout mice; cited from earlier work.

With `Cc1c(C(=O)NN2CCCCC2)nn(-c2ccc(Cl)cc2Cl)c1-c1ccc(Cl)cc1` [SR141716A], the food intake result was “reduces food intake in wild-type but not knockout mice”.
